What was measured:
[1] = test system: SW480 human primary colon cancer cells; assay: MTT assay, SW480 cells; assay type: cell-based
[2] = test system: SW620 human metastatic colon cancer cells; assay: MTT assay, SW620 cells; assay type: cell-based
[3] = test system: PC3 human metastatic prostate cancer cells; assay: MTT assay, PC3 cells; assay type: cell-based
[4] = test system: MDA-MB-231 human breast cancer cells; assay: MTT assay, MDA-MB-231 cells; assay type: cell-based; details: for IC50: Homo sapiens, MDA-MB-231, 72 h, read-out: IC50 MDA-MB-231
[5] = test system: A549 human lung cancer cells; assay: MTT assay, A549 cells; assay type: cell-based
[6] = test system: MiaPaCa human pancreas cancer cells; assay: MTT assay, MiaPaCa cells; assay type: cell-based; details: for IC50: Homo sapiens, MIA PaCa-2, 72 h, read-out: IC50 MiaPaCa
[7] = test system: HaCaT human immortal keratinocytes; assay: cells; assay type: cell-based; details: 72 h, read-out: IC50 HaCaT (normal cells)
[8] = test system: V79 Chinese hamster lung fibroblasts; assay: MTT assay, V79 cells; assay type: cell-based; details: Cricetulus griseus, Fibroblast, 72 h, read-out: IC50 V79 (normal cells)

Row | SMILES | mitochondrial ROS (mtROS) production (A549 cells) | mitochondrial ROS (mtROS) production (MDA-MB-231 cells) | Selectivity index (SI) HaCaT / SW480 [1] | Selectivity index (SI) V79 / SW480 [1] | Selectivity index (SI) HaCaT / SW620 [2] | Selectivity index (SI) V79 / SW620 [2] | Selectivity index (SI) HaCaT / PC3 [3] | Selectivity index (SI) V79 / PC3 [3] | Selectivity index (SI) HaCaT / MDA-MB-231 [4] | Selectivity index (SI) V79 / MDA-MB-231 [4] | IC50 [4] | Selectivity index (SI) HaCaT / A549 [5] | Selectivity index (SI) V79 / A549 [5] | Selectivity index (SI) HaCaT / MiaPaCa [6] | Selectivity index (SI) V79 / MiaPaCa [6] | IC50 [6] | IC50 [7] | IC50 [8]
1 | CC[C@@H](C(=O)[C@@H](C)[C@@H](O)[C@H](C)[C@@H]1O[C@@H]([C@@H](CC)C(=O)OCCCCCC[P+](c2ccccc2)(c2ccccc2)c2ccccc2)CC[C@@H]1C)[C@H]1O[C@]2(C=C[C@@H](OC(=O)CCC(=O)OCCCCCC[P+](c3ccccc3)(c3ccccc3)c3ccccc3)[C@]3(CC[C@@](C)([C@H]4CC[C@](O)(CC)[C@H](C)O4)O3)O2)[C@H](C)C[C@@H]1C [1f] | induced mtROS production | induced mtROS production |  |  |  |  |  |  |  |  |  |  |  |  |  |  |  | 
2 | CC[C@@H](C(=O)[C@@H](C)[C@@H](O)[C@H](C)[C@@H]1O[C@@H]([C@@H](CC)C(=O)O)CC[C@@H]1C)[C@H]1O[C@]2(C=C[C@H](NC(=O)CCC[P+](c3ccccc3)(c3ccccc3)c3ccccc3)[C@]3(CC[C@@](C)([C@H]4CC[C@](O)(CC)[C@H](C)O4)O3)O2)[C@H](C)C[C@@H]1C [1e] |  |  | 0.8 | 0.8 | 0.8 | 0.8 | 2.1 | 2.2 | 1.2 | 1.3 | 6.7 ± 1.2 µM | 1.6 | 1.7 | 1.3 | 1.4 | 6.4 ± 0.2 µM |  | 
3 | CC[C@@H](C(=O)[C@@H](C)[C@@H](O)[C@H](C)[C@@H]1O[C@@H]([C@@H](CC)C(=O)O)CC[C@@H]1C)[C@H]1O[C@]2(C=C[C@@H](O)[C@]3(CC[C@@](C)([C@H]4CC[C@](O)(CC)[C@H](C)O4)O3)O2)[C@H](C)C[C@@H]1C [SAL, Salinomycin, reference compound] |  |  |  |  |  |  |  |  |  |  | 1 ± 0.1 µM |  |  |  |  | 2.6 ± 0.1 µM | 0.6 ± 0.1 µM | 1.2 ± 0.1 µM
4 | CCC1(C2OC(C3OC(O)(Cn4cc(CNC(=O)CCC[P+](c5ccccc5)(c5ccccc5)c5ccccc5)nn4)C(C)CC3C)CC2C)CCC(C2(C)CCC3(CC(O)C(C)C(C(C)C(OC)C(C)C(=O)O)O3)O2)O1 (centres unmarked) [2c] |  |  | 0.8 | 1.8 | 1.4 | 3.0 | 1.0 | 2.2 | 1.0 | 2.3 | 13.9 ± 2.6 µM | 1.0 | 2.2 | 1.0 | 2.3 | 13.9 ± 0.7 µM | 14.5 ± 3.3 µM | 32.2 ± 1 µM
5 | CC[C@@H](C(=O)[C@@H](C)[C@@H](O)[C@H](C)[C@@H]1O[C@@H]([C@@H](CC)C(=O)O)CC[C@@H]1C)[C@H]1O[C@]2(C=C[C@H](n3cc(CNC(=O)CCC[P+](c4ccccc4)(c4ccccc4)c4ccccc4)nn3)[C@]3(CC[C@@](C)([C@H]4CC[C@](O)(CC)[C@H](C)O4)O3)O2)[C@H](C)C[C@@H]1C [1c] |  |  | 0.7 | 1.7 | 0.5 | 1.2 | 0.6 | 1.3 | 0.6 | 1.5 | 11.4 ± 1.3 µM | 0.5 | 1.1 | 0.5 | 1.2 | 14.1 ± 1.5 µM |  | 
6 | CCCC[P+](CCCC)(CCCC)Cc1cn([C@H]2C=C[C@]3(O[C@H]([C@@H](CC)C(=O)[C@@H](C)[C@@H](O)[C@H](C)[C@@H]4O[C@@H]([C@@H](CC)C(=O)O)CC[C@@H]4C)[C@@H](C)C[C@H]3C)O[C@@]23CC[C@@](C)([C@H]2CC[C@](O)(CC)[C@H](C)O2)O3)nn1 [1d] |  |  | 1.0 | 1.9 | 1.3 | 2.7 | 0.7 | 1.3 | 0.5 | 1.0 | 5 ± 0.3 µM | 0.7 | 1.3 | 0.8 | 1.7 | 2.9 ± 0.6 µM |  | 
7 | CC[C@@H](C(=O)[C@@H](C)[C@@H](O)[C@H](C)[C@@H]1O[C@@H]([C@@H](CC)C(=O)O)CC[C@@H]1C)[C@H]1O[C@]2(C=C[C@H](n3cc(COC(=O)CCC[P+](c4ccccc4)(c4ccccc4)c4ccccc4)nn3)[C@]3(CC[C@@](C)([C@H]4CC[C@](O)(CC)[C@H](C)O4)O3)O2)[C@H](C)C[C@@H]1C [1b] |  |  | 0.3 | 0.5 | 0.2 | 0.3 | 0.5 | 0.8 | 0.5 | 0.9 | 5.2 ± 0.2 µM | 0.7 | 1.2 | 0.3 | 0.5 | 8.5 ± 1.5 µM |  | 
8 | CCC1(C2OC(C3OC(O)(Cn4cc(COC(=O)CCC[P+](c5ccccc5)(c5ccccc5)c5ccccc5)nn4)C(C)CC3C)CC2C)CCC(C2(C)CCC3(CC(O)C(C)C(C(C)C(OC)C(C)C(=O)O)O3)O2)O1 (centres unmarked) [2b] |  |  | 1.4 | 8.6 | 0.7 | 4.6 | 1.6 | 9.9 | 0.6 | 4.1 | 1.7 ± 0.1 µM | 0.3 | 2.0 | 1.0 | 6.3 | 1.1 ± 0.3 µM | 1.1 ± 0.5 µM | 6.9 ± 1.9 µM
9 | CCCC[P+](CCCC)(CCCC)Cc1cn(CC2(O)OC(C3CC(C)C(C4(CC)CCC(C5(C)CCC6(CC(O)C(C)C(C(C)C(OC)C(C)C(=O)O)O6)O5)O4)O3)C(C)CC2C)nn1 (centres unmarked) [2d] |  |  | 0.5 | 1.2 | 0.4 | 1.0 | 0.5 | 1.4 | 1.1 | 3.0 | 1.4 ± 0.2 µM | 1.1 | 3.0 | 1.0 | 2.6 | 1.6 ± 0.3 µM | 1.6 ± 0.2 µM | 4.2 ± 1.4 µM

Source: publication PMC12655037, “Mitochondrial-Targeted Triphenylphosphonium-Conjugated Ionophores with Enhanced Cytotoxicity in Cancer Cells” (Molecules, 2025)
